The text below walks through data of patent US9981916B2 (Genentech, Inc., priority 2013, dated 2018).

Protein sequences, listed by entry. Tags and fused reporters are not part of them. Residues count along the entry.
UniProt P51449, 269-508 limits assumed: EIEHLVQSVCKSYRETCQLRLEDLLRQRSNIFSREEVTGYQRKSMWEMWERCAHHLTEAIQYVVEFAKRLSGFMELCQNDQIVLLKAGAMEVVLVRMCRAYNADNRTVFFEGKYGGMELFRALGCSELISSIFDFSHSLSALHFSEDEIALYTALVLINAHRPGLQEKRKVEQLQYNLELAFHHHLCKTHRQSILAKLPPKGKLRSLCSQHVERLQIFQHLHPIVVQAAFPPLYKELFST

Usually IC50 stands for the concentration at which inhibition is half-maximal.

This assay addresses RORc ligand binding domain (Homo sapiens, UniProt P51449). Briefly: In vitro RORc ligand binding assay (25-[3H]hydroxycholesterol displacement, filter binding). Particulars: read-out: RORc IC50; 6 nM 25-[3H]hydroxycholesterol, 0.6 ug/mL RORc receptor, 3 h at 25° C. As to the method: Example 17: In Vitro RORc Ligand Binding Assay
This assay was used to determine a compound's potency in inhibiting activity of RORc by determining, Kiapp, IC50, or percent inhibition values.
On day of the assay, 100 uL of 0.05% CHAPS (in deionized H2O) was added to all wells of the GFB Unifilter plate and allowed soak for 1 h. A wash buffer of 50 mM HEPES (pH 7.4), 150 mM NaCl, and 5 mM MgCl2 was prepared to wash the filter plate. To prepare an assay buffer, BSA was added to the wash buffer to reach 0.01% and DTT was added to reach 1 mM.
For IC50 mode, 10 mM compound stocks were serially diluted in DMSO with DMSO to give 20× required final concentration in DMSO (15 uL compound+30 uL DMSO). The 20× compound stocks were diluted in DMSO with Assay Buffer 4-fold to reach 5× the final test concentration in 25% DMSO (10 uL compound+30 uL Assay Buffer). Solutions were mixed by aspiration several times with a pipette set on 50 uL volume. For the assay, 10 uL of 5× compound stock solutions in 25% DMSO were added to the assay plate in duplicate. […]
Using a Packard Filtermate Harvester, the filter plate were washed 4 times following transfer of the incubated samples. […] 50 uL Microscint 0 was added to all wells and read on Topcount protocol Inverted. […]

For `CC1(C)C2CCC1(C(=O)N1CCC(F)C1)c1nnc(-c3c(F)cccc3F)cc12` (stereo not shown), the IC50 amounted to 47.6 nM.
